This is an account of results in ChEMBL document CHEMBL3804770, “Far-Red Light-Activatable Prodrug of Paclitaxel for the Combined Effects of Photodynamic Therapy and Site-Specific Paclitaxel Chemotherapy” (J Med Chem, 2016).

Amino acid sequences for entries named in this document (tags omitted).
UniProt P02554, whole entry, looked up: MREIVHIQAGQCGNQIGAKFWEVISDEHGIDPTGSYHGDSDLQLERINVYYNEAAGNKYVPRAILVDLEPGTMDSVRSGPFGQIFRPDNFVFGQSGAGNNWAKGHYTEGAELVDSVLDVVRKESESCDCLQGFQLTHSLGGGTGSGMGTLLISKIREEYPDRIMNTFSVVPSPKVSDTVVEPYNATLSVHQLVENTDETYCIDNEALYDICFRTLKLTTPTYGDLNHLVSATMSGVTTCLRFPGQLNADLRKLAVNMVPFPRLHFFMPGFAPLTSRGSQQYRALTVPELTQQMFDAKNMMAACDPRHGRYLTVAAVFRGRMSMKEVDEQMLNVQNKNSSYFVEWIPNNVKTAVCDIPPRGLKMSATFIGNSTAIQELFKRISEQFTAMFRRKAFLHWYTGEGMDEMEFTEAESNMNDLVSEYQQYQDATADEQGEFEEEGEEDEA
UniProt P02550, whole entry, looked up: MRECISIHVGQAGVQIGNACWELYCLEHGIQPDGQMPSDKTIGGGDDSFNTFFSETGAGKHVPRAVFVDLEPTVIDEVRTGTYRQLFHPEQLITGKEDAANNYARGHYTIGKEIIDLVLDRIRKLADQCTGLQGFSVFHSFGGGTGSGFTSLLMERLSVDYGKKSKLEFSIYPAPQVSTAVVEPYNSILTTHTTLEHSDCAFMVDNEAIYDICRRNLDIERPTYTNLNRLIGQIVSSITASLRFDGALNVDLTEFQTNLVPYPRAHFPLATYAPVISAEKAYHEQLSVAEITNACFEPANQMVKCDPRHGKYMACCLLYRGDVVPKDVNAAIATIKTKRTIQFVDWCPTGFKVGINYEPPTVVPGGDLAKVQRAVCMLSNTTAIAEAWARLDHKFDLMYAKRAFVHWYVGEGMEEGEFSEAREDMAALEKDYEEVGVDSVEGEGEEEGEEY

For this test, the target named is Tubulin (Sus scrofa) (UniProt P02554+P02550). The test is described as follows: Induction of porcine brain tubulin polymerization assessed as time required to reach maxium effect at 3 uM measured every 2 mins for 1 hr by fluorescence analysis in presence of GTP.

As to `CC(=O)O[C@H]1C(=O)[C@@]2(C)[C@H]([C@H](OC(=O)c3ccccc3)[C@]3(O)C[C@H](OC(=O)[C@H](O)[C@@H](NC(=O)c4ccccc4)c4ccccc4)C(C)=C1C3(C)C)[C@]1(OC(C)=O)CO[C@@H]1C[C@@H]2O` [PACLITAXEL], the TIME is 0.267 h.
